# Target: T1, cACE (Homo sapiens, UniProt P12821)
# The chains behind the UniProt entries cited, without tags or fusion partners. Residues count along the entry.
# UniProt P12821, 643-1222 limits assumed: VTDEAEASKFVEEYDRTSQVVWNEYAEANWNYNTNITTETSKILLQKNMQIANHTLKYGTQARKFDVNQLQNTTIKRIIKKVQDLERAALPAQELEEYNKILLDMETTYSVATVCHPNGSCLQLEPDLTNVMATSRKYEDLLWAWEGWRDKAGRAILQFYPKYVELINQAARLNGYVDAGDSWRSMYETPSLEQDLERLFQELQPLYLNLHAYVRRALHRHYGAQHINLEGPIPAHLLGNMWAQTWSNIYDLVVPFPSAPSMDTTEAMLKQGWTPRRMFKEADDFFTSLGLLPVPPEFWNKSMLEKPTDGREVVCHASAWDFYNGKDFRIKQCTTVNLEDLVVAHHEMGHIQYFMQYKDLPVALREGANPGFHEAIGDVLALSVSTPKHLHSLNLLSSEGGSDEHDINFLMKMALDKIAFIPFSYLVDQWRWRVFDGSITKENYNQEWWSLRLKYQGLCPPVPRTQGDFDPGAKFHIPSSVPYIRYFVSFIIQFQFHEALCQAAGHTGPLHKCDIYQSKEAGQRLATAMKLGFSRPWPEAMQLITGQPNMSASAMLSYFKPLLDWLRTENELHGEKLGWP
# T1 construct: using purified recombinant single domain human ACE proteins and the human NEP ectodomain as previously described; made in house
# Assay: ACE inhibition assay, cACE (fluorogenic end point, Z-FHL)
# Assay type: biochemical
# Details: nACE IC50/cACE IC50
# Experimental: AD014, AD015, and AD016 were tested for in vitro nACE, cACE, and NEP inhibition using purified recombinant single domain human ACE proteins and the human NEP ectodomain as previously described. For an accurate comparison of the inhibitor potencies across different enzymes and substrates, it is preferable to determine inhibition constants (Ki values). […] In the case of these new analogues, it was more challenging to accurately determine Ki values that could reliably be used to determine selectivity. […] This highlights the challenges in extrapolating data from in vitro assays to predict in vivo selectivity between targets. Furthermore, while comparing Ki values (assuming they can be accurately determined in vitro using available kinetic models) provides information on the relative binding affinities in the absence of substrate, in vivo the extent of enzyme inhibition will be affected by the relative concentrations and affinities of the physiological substrates competing for the binding sites. Given that accurate Ki values could not be calculated in a consistent manner for all compound-enzyme combinations, IC50 values are reported (Table 1).
# Purified fully glycosylated human cACE and nACE proteins[36],[37] were used in fluorogenic end point activity assays utilizing Cbz-Phe-His-Leu (Z-FHL, Bachem Ltd., nACE Km = 600 μM; cACE Km = 60 μM) as the substrate as previously described.[32] […]
row,SMILES,C-selectivity factor
1,"Cc1ccc([C@H]2CC[C@@H](C(=O)O)N2C(=O)CNC(=O)[C@@H](S)Cc2ccccc2)cc1 [AD015, (2S,5R)-1-(((S)-2-Mercapto-3-phenylpropanoyl)glycyl)-5-(p-tolyl)pyrrolidine-2-carboxylic Acid]",24
2,"O=C(N[C@H]1CCS[C@H]2CCC[C@@H](C(=O)O)N2C1=O)[C@@H](S)Cc1ccccc1 [Omapatrilat, reference compound]",2
